From PMC11252418, “Specific glycine-dependent enzyme motion determines the potency of conformation selective inhibitors of threonyl-tRNA synthetase” (Communications Biology, 2024) come the findings set out here.

Chains of the proteins cited; added tags and fusions are not shown. Residues count along the entry.
UniProt P0A8M3, 242-642 G463S limits assumed: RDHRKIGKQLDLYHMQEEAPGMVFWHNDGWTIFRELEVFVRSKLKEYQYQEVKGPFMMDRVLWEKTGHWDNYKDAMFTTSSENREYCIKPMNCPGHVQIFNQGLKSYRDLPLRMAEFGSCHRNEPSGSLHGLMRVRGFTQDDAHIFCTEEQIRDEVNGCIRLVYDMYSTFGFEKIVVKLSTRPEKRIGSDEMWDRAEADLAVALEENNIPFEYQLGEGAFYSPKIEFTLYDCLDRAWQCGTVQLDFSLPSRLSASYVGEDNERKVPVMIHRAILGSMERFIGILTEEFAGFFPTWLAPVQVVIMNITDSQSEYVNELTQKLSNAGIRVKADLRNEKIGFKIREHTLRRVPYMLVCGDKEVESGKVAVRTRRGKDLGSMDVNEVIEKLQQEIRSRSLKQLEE
UniProt P0A8M3, 242-642 G463S/Q484A limits assumed: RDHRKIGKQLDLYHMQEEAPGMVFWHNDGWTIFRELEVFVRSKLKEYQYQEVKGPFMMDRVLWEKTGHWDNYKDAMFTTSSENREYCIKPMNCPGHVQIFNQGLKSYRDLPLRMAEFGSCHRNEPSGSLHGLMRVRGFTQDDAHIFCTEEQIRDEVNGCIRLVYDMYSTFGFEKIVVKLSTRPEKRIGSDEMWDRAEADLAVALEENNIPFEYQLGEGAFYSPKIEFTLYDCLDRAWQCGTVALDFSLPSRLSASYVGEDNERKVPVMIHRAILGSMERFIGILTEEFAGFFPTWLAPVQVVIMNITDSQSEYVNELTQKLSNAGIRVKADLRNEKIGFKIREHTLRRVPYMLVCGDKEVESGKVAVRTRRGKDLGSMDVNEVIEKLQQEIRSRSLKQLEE
UniProt P0A8M3, 242-642 G463A limits assumed: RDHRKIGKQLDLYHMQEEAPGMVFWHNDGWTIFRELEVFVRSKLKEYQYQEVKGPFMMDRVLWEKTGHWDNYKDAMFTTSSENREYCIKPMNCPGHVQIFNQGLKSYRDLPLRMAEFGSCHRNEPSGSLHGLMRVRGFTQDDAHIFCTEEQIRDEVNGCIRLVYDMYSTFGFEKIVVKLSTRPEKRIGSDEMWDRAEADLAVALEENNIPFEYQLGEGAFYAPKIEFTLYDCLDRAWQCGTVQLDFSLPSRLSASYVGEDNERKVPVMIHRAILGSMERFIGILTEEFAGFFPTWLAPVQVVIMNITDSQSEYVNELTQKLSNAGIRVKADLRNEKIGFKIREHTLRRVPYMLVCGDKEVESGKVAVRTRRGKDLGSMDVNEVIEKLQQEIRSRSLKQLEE
UniProt P0A8M3, 242-642 A316N limits assumed: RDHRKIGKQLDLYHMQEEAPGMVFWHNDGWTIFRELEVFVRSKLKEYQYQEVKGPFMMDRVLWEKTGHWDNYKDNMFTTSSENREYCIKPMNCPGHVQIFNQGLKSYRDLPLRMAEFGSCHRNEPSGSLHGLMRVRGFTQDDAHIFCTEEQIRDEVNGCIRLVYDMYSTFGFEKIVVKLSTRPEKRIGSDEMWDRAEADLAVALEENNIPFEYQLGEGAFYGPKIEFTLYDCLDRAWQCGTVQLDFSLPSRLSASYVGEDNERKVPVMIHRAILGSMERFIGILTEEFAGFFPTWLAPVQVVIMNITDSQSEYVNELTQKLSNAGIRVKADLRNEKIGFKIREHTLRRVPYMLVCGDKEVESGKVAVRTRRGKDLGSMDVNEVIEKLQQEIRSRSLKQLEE
UniProt P0A8M3, 242-642 limits assumed: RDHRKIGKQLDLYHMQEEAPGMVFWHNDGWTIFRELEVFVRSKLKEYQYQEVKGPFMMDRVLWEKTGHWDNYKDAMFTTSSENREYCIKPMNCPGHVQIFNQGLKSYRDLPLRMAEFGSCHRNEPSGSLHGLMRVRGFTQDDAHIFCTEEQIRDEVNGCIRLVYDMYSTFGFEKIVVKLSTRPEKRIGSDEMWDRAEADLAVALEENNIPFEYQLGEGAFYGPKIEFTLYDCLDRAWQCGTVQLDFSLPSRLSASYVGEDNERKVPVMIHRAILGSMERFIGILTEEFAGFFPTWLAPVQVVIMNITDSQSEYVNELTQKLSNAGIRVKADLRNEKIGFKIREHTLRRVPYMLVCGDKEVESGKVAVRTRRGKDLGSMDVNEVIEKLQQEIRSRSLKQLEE
UniProt P0A8M3, 242-642 L489M limits assumed: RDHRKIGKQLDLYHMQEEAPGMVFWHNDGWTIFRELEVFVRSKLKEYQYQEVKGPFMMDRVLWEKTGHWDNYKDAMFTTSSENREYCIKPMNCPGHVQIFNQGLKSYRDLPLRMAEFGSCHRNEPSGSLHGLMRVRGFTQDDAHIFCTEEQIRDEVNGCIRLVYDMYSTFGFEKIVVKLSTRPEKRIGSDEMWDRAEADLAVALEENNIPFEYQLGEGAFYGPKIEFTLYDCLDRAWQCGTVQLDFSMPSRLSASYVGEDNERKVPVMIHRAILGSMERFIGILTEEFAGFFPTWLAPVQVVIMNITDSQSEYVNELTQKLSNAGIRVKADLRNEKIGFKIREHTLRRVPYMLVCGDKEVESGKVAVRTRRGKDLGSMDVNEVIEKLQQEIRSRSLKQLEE

Each structure is given as a SMILES string. “And” between values parts separate entries of the source, which are not always exact repeats. Identical values can stand only once.

Assay [1] deals with EcThrRS_L489M (Escherichia coli, UniProt P0A8M3, L489M). The experiment in a line: Thermal shift assay (TSA). The assay is classed as binding. The following applies: 2 μM protein, 20 μM compound, mean n = 4.
Assay [2] deals with EcThrRS_A316N (Escherichia coli, UniProt P0A8M3, A316N). The experiment in a line: Thermal shift assay (TSA). In kind it is binding. To be noted: source data sheet Fig.S4a, ThrRS_A316N.
Assay [3] deals with T1, EcThrRS_G463A (Escherichia coli, UniProt P0A8M3, G463A). Description: Thermal shift assay (TSA). In kind it is binding. To be noted: source data sheet Fig.5a, ThrRS_G463A.
Assay [4] addresses T2, EcThrRS_G463S (Escherichia coli, UniProt P0A8M3, G463S). Description: Thermal shift assay (TSA). In kind it is binding.
The target in assay [5] is T3, EcThrRS_G463S_Q484A (Escherichia coli, UniProt P0A8M3, G463S/Q484A). Description: Thermal shift assay (TSA). In kind it is binding.
Assay [6] concerns the target T2, EcThrRS_G463S.
Assay [7] deals with T3, EcThrRS_G463S_Q484A.
Assay [8] addresses T4, EcThrRS_WT (Escherichia coli, UniProt P0A8M3).
Assay [9] has as its target T1, EcThrRS_G463A.
For assay [10], the target named is T4, EcThrRS_WT. The source holds these as a separate data set.
[11] abbreviates: 2 μM protein, 20 μM compound, mean n = 4.

The Kd is the concentration at which binding is half-saturated. A low value points to tighter binding. For `C[C@@H](O)[C@H](N)C(=O)NC(CNC(=O)CCn1cnc2cc(Cl)c(Cl)cc2c1=O)c1cccc(-c2ccc3c(c2)CNC3=O)c1` (stereo partly drawn), the “ΔTm (increase of Tm)” value was 22.7 °C in [1]; 22.1 °C in [4] (setting [11]); 27.6 °C in [5] (setting [11]); 29.4 °C and 30.5 °C in assay [10]. Further, the ΔTm, single replicates in assay [2] is 32 °C and 31.3 °C and 31.4 °C (2×); in [3], 21.6 °C (2×) and 21.7 °C and 22.8 °C; in [4] (source data sheet Fig.2a, ThrRS_G463S), 21.9 °C and 22.1 °C (2×) and 22.2 °C; in assay [5] (source data sheet Fig.3c, ThrRS_G463S_Q484A) it was 27.6 °C and 27.5 °C (2×) and 27.8 °C. The equilibrium dissociation constant (Kd) came out at 8.4 nM in assay [6], 18.9 nM in assay [7], 7.3 nM in [8] and 19.5 nM in [9].
